The subject of one data set is BVDV. The data set is described as follows: Protection of MDBK cells from BVDV-induced cytopathicity (CPE reduction, MTS/PMS). The class given is cell-based, bovine viral diarrhea virus.
Another data set deals with MDBK cells. In words: Drug cytotoxicity in uninfected MDBK cells (MTS/PMS).

One substance from US20060194835A1, “Compositions and methods for treating or preventing flaviviridae infections” (priority 2005, published 2006) can be followed below.

Where only a bound is given, the exact number is not on record here.

Take “Interferon-β-1a: interferon-β-1a (Avonex, Biogen Idec; or Rebif, Serono Inc.)”: in the data set with BVDV (50% CPE reduction, MOI 0.01), the EC50 was over 1000 IU/mL. Besides, the “protection of MDBK cells from BVDV-induced cytopathicity (in words)” value with BVDV (at the concentrations tested) is “do not protect”. In addition, in the data set on MDBK cells, the CC50 is reported as over 1000 IU/mL.
